We go through one substance from EP4786540A1, “POLYMER COMPOSITION AND METHOD FOR PRODUCING SAME, FORMULATION, CROSSLINKED PRODUCT, AND TIRE” (priority 2023, dated 2025).

The nature of the data set: pH of the acid forming the acid component (pH meter, 20°C). The data set is classed as physicochemical. The settings on record: organic acid 1.0 g in purified water 1.0 L, inorganic acid 0.1-mol/L aqueous solution, for a salt, pH of the acid forming it. The method, then: No particular limitation is imposed on the acidity of the acid forming the acid component (B), which is specifically the pH of the acid forming the acid component (B) at 20°C, is for example, 1 to 6. […] When the acid component (B) is an inorganic acid, the pH corresponds to a value measured by use of a […] aqueous solution. In the case of a metal salt of the acid, the pH corresponds to the pH of the acid forming the metal salt thereof.
The pH of a liquid prepared by mixing an acid (1.0 g) and purified water (1.0 L) was measured at 20°C by means of a pH meter (product of HORIBA, Ltd.). In the case of an organic acid salt, the pH of the acid forming the salt was measured.
The pH of a 0.1-mol/L aqueous solution of the acid employed was measured at 20°C in the same manner as employed above.

On to tin bis(2-ethylhexanoate) [b-5], for which the pH was 3.
